This note sets out measurements from patent US20240218342A1, “SITE-SPECIFIC GLYCAN REMODELING OF LYSOSOMAL ENZYMES AND APPLICATIONS THEREOF” (priority 2021, published 2024).

Sequences of proteins named here, by UniProt entry; tags and fusion partners are left off. Residues count along the entry.
UniProt P11717, 41-2491: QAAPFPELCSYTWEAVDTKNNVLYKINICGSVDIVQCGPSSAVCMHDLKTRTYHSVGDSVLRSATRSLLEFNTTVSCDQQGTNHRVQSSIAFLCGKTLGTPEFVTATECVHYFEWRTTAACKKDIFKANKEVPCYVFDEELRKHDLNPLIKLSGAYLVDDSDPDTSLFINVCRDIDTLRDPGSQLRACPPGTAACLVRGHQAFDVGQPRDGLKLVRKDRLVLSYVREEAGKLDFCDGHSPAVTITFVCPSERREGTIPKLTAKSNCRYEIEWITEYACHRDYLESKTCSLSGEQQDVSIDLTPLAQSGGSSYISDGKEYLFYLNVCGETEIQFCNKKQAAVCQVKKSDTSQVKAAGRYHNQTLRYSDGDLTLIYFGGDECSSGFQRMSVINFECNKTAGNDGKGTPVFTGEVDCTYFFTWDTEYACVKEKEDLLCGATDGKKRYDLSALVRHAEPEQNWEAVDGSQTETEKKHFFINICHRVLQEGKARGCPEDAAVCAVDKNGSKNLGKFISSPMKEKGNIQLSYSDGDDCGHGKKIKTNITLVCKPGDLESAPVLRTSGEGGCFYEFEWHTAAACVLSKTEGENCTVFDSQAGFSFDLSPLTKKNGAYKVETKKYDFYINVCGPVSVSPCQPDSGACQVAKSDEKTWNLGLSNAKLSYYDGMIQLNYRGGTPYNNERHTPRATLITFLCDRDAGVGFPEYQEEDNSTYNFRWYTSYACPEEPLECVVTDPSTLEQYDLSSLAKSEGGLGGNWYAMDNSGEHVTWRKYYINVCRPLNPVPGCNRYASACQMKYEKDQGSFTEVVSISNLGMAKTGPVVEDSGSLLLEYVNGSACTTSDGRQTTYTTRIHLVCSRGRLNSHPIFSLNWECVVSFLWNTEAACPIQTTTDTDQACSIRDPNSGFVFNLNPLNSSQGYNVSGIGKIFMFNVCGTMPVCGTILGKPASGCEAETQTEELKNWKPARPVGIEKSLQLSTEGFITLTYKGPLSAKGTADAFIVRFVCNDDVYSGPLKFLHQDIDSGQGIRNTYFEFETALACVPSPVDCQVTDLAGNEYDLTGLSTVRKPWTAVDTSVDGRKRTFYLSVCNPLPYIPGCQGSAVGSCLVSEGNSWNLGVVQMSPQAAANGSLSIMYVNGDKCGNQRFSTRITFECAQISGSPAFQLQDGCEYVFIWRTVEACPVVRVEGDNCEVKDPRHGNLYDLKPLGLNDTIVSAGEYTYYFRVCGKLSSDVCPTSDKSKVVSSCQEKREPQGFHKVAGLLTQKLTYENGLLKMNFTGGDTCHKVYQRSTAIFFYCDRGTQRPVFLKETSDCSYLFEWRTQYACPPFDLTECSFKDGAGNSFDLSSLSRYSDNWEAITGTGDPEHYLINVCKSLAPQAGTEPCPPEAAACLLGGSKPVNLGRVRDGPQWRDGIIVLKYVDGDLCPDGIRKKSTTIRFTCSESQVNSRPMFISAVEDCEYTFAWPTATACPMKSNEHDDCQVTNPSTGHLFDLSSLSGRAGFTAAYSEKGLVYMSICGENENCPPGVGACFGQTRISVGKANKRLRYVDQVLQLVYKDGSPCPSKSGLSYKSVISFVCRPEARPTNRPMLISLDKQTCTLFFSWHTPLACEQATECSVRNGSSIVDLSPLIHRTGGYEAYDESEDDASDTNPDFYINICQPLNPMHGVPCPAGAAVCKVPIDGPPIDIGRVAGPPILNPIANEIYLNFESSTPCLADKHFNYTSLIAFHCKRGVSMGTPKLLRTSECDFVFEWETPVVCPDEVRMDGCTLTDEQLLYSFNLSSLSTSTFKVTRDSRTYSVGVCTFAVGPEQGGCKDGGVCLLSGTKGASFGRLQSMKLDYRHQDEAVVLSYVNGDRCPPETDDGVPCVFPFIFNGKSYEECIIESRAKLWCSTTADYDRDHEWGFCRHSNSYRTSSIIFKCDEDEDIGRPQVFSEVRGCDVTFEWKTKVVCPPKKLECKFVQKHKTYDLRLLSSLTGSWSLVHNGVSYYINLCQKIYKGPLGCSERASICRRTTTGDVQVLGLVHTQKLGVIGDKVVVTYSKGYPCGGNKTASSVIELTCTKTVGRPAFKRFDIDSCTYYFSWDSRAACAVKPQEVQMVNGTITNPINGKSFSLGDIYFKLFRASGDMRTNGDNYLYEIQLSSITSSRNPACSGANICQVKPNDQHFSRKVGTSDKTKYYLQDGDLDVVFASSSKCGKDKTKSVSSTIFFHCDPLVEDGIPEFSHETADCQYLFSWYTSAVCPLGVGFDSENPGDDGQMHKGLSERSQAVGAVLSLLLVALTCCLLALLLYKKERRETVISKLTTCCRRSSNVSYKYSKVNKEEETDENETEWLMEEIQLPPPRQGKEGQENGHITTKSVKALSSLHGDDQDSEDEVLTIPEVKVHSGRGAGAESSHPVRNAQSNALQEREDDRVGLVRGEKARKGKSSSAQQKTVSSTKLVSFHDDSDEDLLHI

The assay addresses Recombinant human IGF-II R (CI-MPR) (Homo sapiens, UniProt P11717). As to the kind of experiment: SPR binding to immobilized CI-MPR. To be noted: 25° C., three independent experiments.

In the case of “Lumizyme: recombinant human acid α-glucosidase (alglucosidase alfa, Genzyme), therapeutic lysosomal enzyme for Pompe disease”, the Kd was found to be 14 nM.
